Biological target: E3 ubiquitin-protein ligase XIAP [241-356] (Homo sapiens, UniProt P98170)

Amino acid sequences for entries named in this document (tags omitted). Residues count along the entry.
UniProt P98170, 241-356: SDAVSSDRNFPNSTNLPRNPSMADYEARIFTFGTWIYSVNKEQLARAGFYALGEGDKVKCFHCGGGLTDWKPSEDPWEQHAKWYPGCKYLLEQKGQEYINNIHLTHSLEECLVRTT

CC[C@H](N)C(=O)N[C@H]1CCC[C@H]2CC[C@@H](C(=O)NC(c3ccccc3)c3ccccc3)N2C1=O [JMC517169 Compound 12]
Ki: 420 nM
